## Binding of CDR-mutated scFvs to a peptide of the spike HR2 region

Target: peptide PDVDLGDISGINAS, taken from heptad repeat 2 (HR2) of SARS-CoV-2 spike.

The variants keep the light chain, the linker and the frameworks of Ab-14 (scFv order VH, a (GGGGS)3 linker, VL).
VH: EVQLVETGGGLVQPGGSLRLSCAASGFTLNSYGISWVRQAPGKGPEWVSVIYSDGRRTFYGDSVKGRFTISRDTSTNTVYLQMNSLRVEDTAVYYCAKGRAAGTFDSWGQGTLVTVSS
VL: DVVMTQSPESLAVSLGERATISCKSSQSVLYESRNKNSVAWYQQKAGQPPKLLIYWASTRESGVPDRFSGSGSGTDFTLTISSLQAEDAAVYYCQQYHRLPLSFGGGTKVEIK

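The starting antibody came from a phage panning campaign against this peptide. This is the validation round: designs drawn from the data on random variants, tested in the same kind of assay. Their group label is 14H_En_Gen (En: ensemble of fine-tuned language models; Gen: genetic algorithm). In AlphaSeq, yeast of one mating type display the scFv and yeast of the other type display the target. The frequency of each diploid, read from paired DNA barcodes, reflects how well the two displayed proteins bind. The ratio of observed to expected reads was calibrated, replicate by replicate, on BCL2-family standards whose Kd was known from biolayer interferometry. Each pool was mated in six replicate cultures.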

Variants are written as CDR1, CDR2 and CDR3 of the heavy chain (limits as in the source). Parent: GFTLNSYGIS, VIYSDGRRTFYGDSVK, GRAAGTFDS. Numbers give log10(Kd / nM), so 0 is 1 nM and 3 is 1 µM. Smaller is tighter. A mean of the replicates is given; it leaves out those without a signal. "ND" marks a missing value. The strain was present, yet no cells mated with the target were sequenced in that replicate, which points to weak or no binding. Background: pairings of all heavy chain designs with three empty control strains gave a value in 1% of cases (median 2.08, 5th percentile 0.84). Values in that range, when seen in few replicates, are hard to tell from nonspecific mating. Also given: how often the same scFv was detected with the empty control strains, with their mean in brackets. The range of this assay differs from that of the first round, and the authors advise against merging the two. The parent sequence was in this pool as ten entries: three were never detected, three once, and four in most replicates, with averages from 0.34 to 2.37. The authors' rule: three or more of the six replicates give a measured affinity, fewer mean a poor binder.

| CDR-H1 | CDR-H2 | CDR-H3 | log10 Kd, replicates | mean, log10 nM | control signals |
|---|---|---|---|---|---|
| GFDLDEYGIS | VIYADGKRTAYADNVK | GNQAGTFDV | -0.41 / -0.33 / -0.35 / -0.65 / -0.25 / -0.24 | -0.37 | 1/18 (2.29) |
| GFDLNEYGIS | VIYADGMRTAYADSVK | GGNAGTFDQ | ND / ND / ND / ND / ND / ND | ND | 0/18 |
| GFDLSEYGIS | VIYADGMRTAYADSVK | GNVAGTFDL | -0.35 / -0.78 / -0.32 / -0.50 / -0.24 / -0.44 | -0.44 | 0/18 |
| GFDLNEYGIS | VIYADGMRTYYADSVK | GETAGTFDQ | 0.03 / -0.30 / -0.13 / 0.01 / -0.46 / -0.12 | -0.16 | 0/18 |
| GFDLNEYGIS | VIYADGVRTAYSDSVK | GETAGTFDL | ND / -0.30 / -0.42 / -0.91 / 0.22 / ND | -0.36 | 0/18 |
| GFDLNEYGIS | VIYADGMRTVYADSVK | GTNAGTFDV | -0.67 / -0.58 / -0.57 / -0.37 / -0.53 / -0.72 | -0.57 | 0/18 |
| GFDLEEYGIS | VIYADGKRTAYADSVK | GNVAGTFDQ | -0.21 / -0.25 / -0.09 / -0.15 / -0.24 / 0.08 | -0.14 | 0/18 |
| GFDLDEYGIS | VIYADGMRTAYTDSVK | GNNAGTFDV | -0.44 / -0.70 / -0.33 / -0.76 / -0.57 / -0.49 | -0.55 | 0/18 |
| GFDLDEYGIS | VIYADGMRTAYADSVK | GNQAGTFDV | -0.02 / ND / ND / ND / ND / ND | -0.02 | 0/18 |
| GFDLDEYGIS | VIYADGQRTAYADSVK | GTNAGTFDT | 0.14 / 0.14 / 0.02 / -0.32 / -0.36 / 0.30 | -0.01 | 0/18 |
| GFDLDEYGIS | VIYADGVRTAYADDVK | GQNAGTFDV | -0.11 / -0.20 / -0.45 / -0.62 / -0.40 / -0.28 | -0.34 | 1/18 (3.56) |
| GFDLEDYGIS | VIYADGVRTAYSDSVK | GNVAGTFDV | -0.27 / -0.91 / -0.46 / -0.73 / -0.66 / -0.38 | -0.57 | 1/18 (1.34) |
| GFDLNEYGIS | VIYADGVRTAYIDSVK | GNNAGTFDV | -0.16 / 0.77 / -0.09 / -0.14 / 0.53 / -0.12 | 0.13 | 0/18 |
| GFDLNEYGIS | VIYADGRRTAYSDSVK | GNTAGTFDV | -0.11 / -0.15 / -0.24 / -0.49 / -0.59 / -0.10 | -0.28 | 0/18 |
| GFDLNEYGIS | VIYADGMRTSYADDVK | GNNAGTFDV | -0.12 / 0.75 / ND / ND / 0.94 / 0.26 | 0.46 | 0/18 |
| GFDLNEYGIS | VIYADGVRTFYADSVK | GNEAGTFDV | -0.35 / -0.42 / -0.44 / -0.50 / -0.33 / -0.15 | -0.36 | 0/18 |
| GFDLNEYGIS | VIYADGLRTAYSDSVK | GNVAGTFDM | -0.15 / -0.38 / -0.63 / -0.73 / -0.56 / -0.33 | -0.46 | 0/18 |
| GFDLNEYGIS | VIYADGMRTAYADDVK | GTVAGTFDV | -0.80 / -0.86 / -0.99 / -0.96 / -0.96 / -0.69 | -0.88 | 0/18 |
| GFDLNEYGIS | VIYADGMRTAYADSVK | GGNAGTFDT | 2.58 / 0.70 / -0.23 / 0.94 / 0.61 / 0.32 | 0.82 | 0/18 |
| GFDLNEYGIS | VIYADGMRTAYSDSVK | GEAAGTFDV | -0.69 / -0.83 / -1.12 / -0.96 / -0.96 / -1.05 | -0.94 | 0/18 |
| GFDLDEYGIS | VIYADGVRTAYADSVK | GEVAGTFDI | -0.17 / -0.62 / -0.48 / -0.55 / -1.10 / -0.57 | -0.58 | 0/18 |
| GFDLNEYGIS | VIYADGVRQAYADSVK | GENAGTFDV | -0.22 / -0.32 / 0.14 / -0.25 / -0.50 / -0.40 | -0.26 | 0/18 |
| GFDLNEYGIS | VIYADGSRTAYADKVK | GNNAGTFDV | 0.08 / -0.36 / -0.47 / -0.35 / -0.21 / 0.00 | -0.22 | 0/18 |
| GFDLNEYGIS | VIYADGSRTAYADSVK | GETAGTFDT | -0.29 / -0.21 / -0.89 / -0.72 / -0.51 / -0.20 | -0.47 | 0/18 |
| GFDLNEYGIS | VIYADGKRTAYADSVK | GEVAGTFDL | -0.19 / -0.18 / -0.47 / -0.56 / -0.04 / 0.22 | -0.20 | 0/18 |
| GFDLNEYGIS | VIYADGMRTSYVDDVK | GENAGTFDV | -0.39 / -0.26 / -0.59 / -0.55 / -0.34 / -0.42 | -0.42 | 0/18 |
| GFDLDEYGIS | VIYADGMRTAYTDSVK | GQNAGTFDV | 1.32 / 0.80 / 1.33 / 0.84 / 1.36 / 0.88 | 1.09 | 0/18 |
| GFDLNEYGIS | VIYADGRRTAYADSVK | GNTAGTFDV | -0.80 / -0.74 / -0.62 / -0.84 / -0.51 / -0.48 | -0.67 | 0/18 |
| GFDLDEYGIS | VIYADGVRTAYSDSVK | GTNAGTFDV | -0.33 / -0.35 / -0.63 / -0.65 / -0.50 / -0.26 | -0.45 | 0/18 |
| GFDLEDYGIS | VIYADGKRTAYADSVK | GQVAGTFDV | -0.58 / -0.65 / -0.24 / -0.27 / -0.67 / -0.34 | -0.46 | 0/18 |
| GFDLNEYGIS | VIYADGKRTFYADSVK | GENAGTFDM | -0.28 / -0.33 / -0.74 / -0.59 / -0.58 / -0.53 | -0.51 | 0/18 |
| GFNLDEYGIS | VIYADGKRTAYADSVK | GNQAGTFDV | -0.18 / -0.15 / -0.51 / -0.47 / -0.40 / -0.19 | -0.32 | 1/18 (1.44) |
| GFDLNEYGIS | VIYADGVRTFYADSVK | GENAGTFDL | -0.44 / -0.05 / -0.16 / -0.44 / -0.41 / -0.08 | -0.26 | 0/18 |
| GFDLDEYGIS | VIYADGQRTAYADSVK | GTNAGTFDL | 0.22 / 0.33 / -0.45 / 0.36 / 0.10 / 0.16 | 0.12 | 0/18 |
| GFDLDEYGIS | VIYADGKRSYYADSVK | GNVAGTFDV | -0.22 / -0.82 / -0.84 / -0.91 / -0.96 / -0.18 | -0.65 | 0/18 |

Picked from the list: the 2 lowest averages where every replicate gave a value.

| CDR-H1 | CDR-H2 | CDR-H3 | log10 Kd, replicates | mean, log10 nM | control signals |
|---|---|---|---|---|---|
| GFDLNEYGIS | VIYADGMRTAYSDSVK | GEAAGTFDV | -0.69 / -0.83 / -1.12 / -0.96 / -0.96 / -1.05 | -0.94 | 0/18 |
| GFDLNEYGIS | VIYADGMRTAYADDVK | GTVAGTFDV | -0.80 / -0.86 / -0.99 / -0.96 / -0.96 / -0.69 | -0.88 | 0/18 |

The measurements come from Li et al. 2023 (doi:10.1038/s41467-023-39022-2) through the FLAb antibody collection.